{"source": "ChEMBL document CHEMBL1811835", "about": "“Intramolecular ion-pair prodrugs of zanamivir and guanidino-oseltamivir” (Bioorg Med Chem, 2011)", "assay": "Octanol-water distribution coefficient, log D of the compound at pH 7.4 at 100 ug/mL", "type": "physicochemical"}
{"compound": "CCOC(=O)C1=C[C@@H](OC(CC)CC)[C@H](NC(C)=O)[C@@H](N)C1", "note": "[OSELTAMIVIR]", "values": [{"measurement": "logD", "value": 0.36}]}
